Data on seven molecules can be found in patent publication US10759809B2 (priority 2017, dated 2020).

Each structure is given as a SMILES string.

In this test the test system is Kunming mice. Briefly: Determination of analgesic activity by hot plate assay of mice. The settings on record: male Kunming mice, hot plate 55° C., by gavage, 1 hour after administration, bliss method. It counts as in vivo. A general note: Hot-plate and tail-flick tests time the reaction to a heat stimulus.
For `[2H]C([2H])([2H])Oc1ccc2c3c1O[C@H]1[C@@]4(OC)CC[C@@]5(C[C@@H]4[C@](C)(O)C(C)(C)CC)[C@@H](C2)N(C([2H])([2H])C2CC2)CC[C@]315`, the ED50 (in general, the midpoint of the dose-response relation) worked out at 4.45 ± 4.02 mg/kg.

`CCC(C)(C)[C@@](C)(O)[C@H]1C[C@@]23CC[C@]1(OC)[C@@H]1Oc4c(O)ccc5c4[C@@]12CCN(CC1CC1)[C@@H]3C5` gave a 50% effective dose (ED50) of 2.60 ± 3.77 mg/kg.

Molecule `[2H]C([2H])([2H])Oc1ccc2c3c1O[C@H]1[C@@]4(OC)CC[C@@]5(C[C@@H]4[C@](C)(O)C(C)(C)CC)[C@@H](C2)N(CC2CC2)CC[C@]315` returned an ED50 of 4.76 ± 3.78 mg/kg.

Consider `[2H]C([2H])([2H])Oc1ccc2c3c1OC1[C@@]4(OC)CC[C@@]5(C[C@@H]4[C@](C)(O)C(C)(C)C)[C@@H](C2)N(CC2CC2)CC[C@]315` (stereo partly shown), for which the 50% effective dose (ED50) is reported as 19.28 ± 17.00 mg/kg.

With `[2H]C([2H])([2H])Oc1ccc2c3c1OC1[C@@]4(OC)CC[C@@]5(C[C@@H]4[C@](C)(O)C(C)(C)C)[C@@H](C2)N(C([2H])([2H])C2CC2)CC[C@]315` (stereo partly shown), the ED50 stood at 21.10 ± 2.87 mg/kg.

`[2H]c1c([2H])c2c3c(c1O)O[C@H]1[C@@]4(OC)CC[C@@]5(C[C@@H]4[C@](C)(O)C(C)(C)CC)[C@@H](C2)N(CC2CC2)CC[C@]315` gave an ED50 of 1.96 ± 2.01 mg/kg.

With `[2H]C([2H])(C1CC1)N1CC[C@]23c4c5ccc(OC)c4O[C@H]2[C@@]2(OC)CC[C@@]3(C[C@@H]2[C@](C)(O)C(C)(C)C)[C@H]1C5`, the ED50 was found to be 4.61 ± 2.03 mg/kg.
